Literature values in patent US8497245B2, “Trypsin-like serine protease inhibitors, their preparation and use as selective inhibitors of the clotting factors IIa and Xa” (The Medicines Company (Leipzig) GmbH, priority 2010, dated 2013).

Target: thrombin (factor IIa) (Homo sapiens, UniProt P00734)
Conditions: literature value; cited from earlier work

For CC1CNc2c(cccc2S(=O)(=O)N[C@@H](CCCNC(=N)N)C(=O)N2CC[C@@H](C)C[C@@H]2C(=O)O)C1 (stereo partly shown) [Argatroban], the Ki is given as 0.027 to 0.039 µM.
